Assay results published in US20260384438A1, “PYRROLOPYRIMIDINE CARBOXAMIDES” (published 2026).

Amino acid sequences for entries named in this document (tags omitted).
UniProt Q56UN5, whole entry: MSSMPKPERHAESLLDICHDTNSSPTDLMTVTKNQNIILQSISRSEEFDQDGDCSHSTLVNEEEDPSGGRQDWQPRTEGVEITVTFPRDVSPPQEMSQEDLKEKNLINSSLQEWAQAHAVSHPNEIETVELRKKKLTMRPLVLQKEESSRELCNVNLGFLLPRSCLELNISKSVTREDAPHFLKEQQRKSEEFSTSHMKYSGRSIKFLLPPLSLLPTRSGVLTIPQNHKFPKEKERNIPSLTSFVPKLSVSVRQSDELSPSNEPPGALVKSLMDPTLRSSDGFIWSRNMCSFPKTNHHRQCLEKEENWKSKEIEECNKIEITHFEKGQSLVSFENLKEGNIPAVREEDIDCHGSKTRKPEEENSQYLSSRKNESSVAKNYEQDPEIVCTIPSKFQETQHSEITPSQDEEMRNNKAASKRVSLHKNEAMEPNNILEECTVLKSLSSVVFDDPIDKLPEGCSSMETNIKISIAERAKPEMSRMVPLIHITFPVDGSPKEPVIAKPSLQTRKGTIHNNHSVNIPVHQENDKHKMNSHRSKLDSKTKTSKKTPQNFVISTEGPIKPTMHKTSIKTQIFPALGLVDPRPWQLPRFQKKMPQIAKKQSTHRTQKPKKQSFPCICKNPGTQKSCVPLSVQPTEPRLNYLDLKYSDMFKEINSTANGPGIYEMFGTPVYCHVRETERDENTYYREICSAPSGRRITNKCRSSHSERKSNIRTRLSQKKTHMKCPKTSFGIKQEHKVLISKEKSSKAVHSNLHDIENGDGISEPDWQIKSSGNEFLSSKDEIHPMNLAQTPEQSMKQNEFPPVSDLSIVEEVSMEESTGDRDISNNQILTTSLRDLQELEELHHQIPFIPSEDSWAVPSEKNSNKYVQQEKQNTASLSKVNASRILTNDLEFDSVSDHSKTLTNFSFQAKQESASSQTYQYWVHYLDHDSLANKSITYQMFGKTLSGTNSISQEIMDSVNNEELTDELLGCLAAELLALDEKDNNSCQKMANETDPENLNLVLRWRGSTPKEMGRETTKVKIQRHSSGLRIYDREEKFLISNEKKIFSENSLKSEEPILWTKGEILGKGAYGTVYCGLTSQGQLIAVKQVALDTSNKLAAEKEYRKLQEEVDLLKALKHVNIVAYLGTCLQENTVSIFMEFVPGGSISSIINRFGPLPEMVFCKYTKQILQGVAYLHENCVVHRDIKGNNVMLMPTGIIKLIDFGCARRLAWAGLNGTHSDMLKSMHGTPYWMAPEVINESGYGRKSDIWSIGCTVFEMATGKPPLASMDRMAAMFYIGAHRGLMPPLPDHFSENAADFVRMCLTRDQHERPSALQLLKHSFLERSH
UniProt P53778, whole entry: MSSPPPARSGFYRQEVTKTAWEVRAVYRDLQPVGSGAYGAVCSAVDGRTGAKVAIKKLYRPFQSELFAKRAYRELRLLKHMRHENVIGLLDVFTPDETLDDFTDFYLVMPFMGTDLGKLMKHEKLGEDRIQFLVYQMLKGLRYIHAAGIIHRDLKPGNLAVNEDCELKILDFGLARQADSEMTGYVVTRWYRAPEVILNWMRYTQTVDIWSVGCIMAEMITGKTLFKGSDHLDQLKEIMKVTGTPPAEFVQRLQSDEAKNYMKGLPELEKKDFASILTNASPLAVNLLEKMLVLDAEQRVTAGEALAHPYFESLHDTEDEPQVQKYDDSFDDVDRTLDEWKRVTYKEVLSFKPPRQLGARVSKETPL
UniProt Q12851, whole entry: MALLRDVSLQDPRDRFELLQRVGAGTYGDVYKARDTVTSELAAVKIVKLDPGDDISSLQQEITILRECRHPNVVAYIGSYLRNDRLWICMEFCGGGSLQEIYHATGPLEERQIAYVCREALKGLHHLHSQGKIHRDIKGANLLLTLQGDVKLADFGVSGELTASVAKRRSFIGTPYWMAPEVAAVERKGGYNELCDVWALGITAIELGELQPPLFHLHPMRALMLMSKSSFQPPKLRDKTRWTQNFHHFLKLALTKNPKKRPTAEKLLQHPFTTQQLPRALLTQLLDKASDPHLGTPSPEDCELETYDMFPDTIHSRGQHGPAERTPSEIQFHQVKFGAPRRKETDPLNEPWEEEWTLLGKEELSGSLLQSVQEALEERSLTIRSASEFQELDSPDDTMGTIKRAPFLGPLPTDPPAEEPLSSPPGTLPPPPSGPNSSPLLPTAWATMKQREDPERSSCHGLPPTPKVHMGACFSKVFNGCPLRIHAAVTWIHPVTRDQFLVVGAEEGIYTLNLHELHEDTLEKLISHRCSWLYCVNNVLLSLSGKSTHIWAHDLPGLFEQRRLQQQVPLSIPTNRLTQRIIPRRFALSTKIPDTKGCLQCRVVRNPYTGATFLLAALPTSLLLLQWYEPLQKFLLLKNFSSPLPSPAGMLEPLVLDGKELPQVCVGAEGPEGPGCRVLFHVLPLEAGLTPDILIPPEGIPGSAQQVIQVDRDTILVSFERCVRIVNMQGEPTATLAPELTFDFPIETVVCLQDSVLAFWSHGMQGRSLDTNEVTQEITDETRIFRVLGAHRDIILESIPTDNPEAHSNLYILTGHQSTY
UniProt P00519, whole entry: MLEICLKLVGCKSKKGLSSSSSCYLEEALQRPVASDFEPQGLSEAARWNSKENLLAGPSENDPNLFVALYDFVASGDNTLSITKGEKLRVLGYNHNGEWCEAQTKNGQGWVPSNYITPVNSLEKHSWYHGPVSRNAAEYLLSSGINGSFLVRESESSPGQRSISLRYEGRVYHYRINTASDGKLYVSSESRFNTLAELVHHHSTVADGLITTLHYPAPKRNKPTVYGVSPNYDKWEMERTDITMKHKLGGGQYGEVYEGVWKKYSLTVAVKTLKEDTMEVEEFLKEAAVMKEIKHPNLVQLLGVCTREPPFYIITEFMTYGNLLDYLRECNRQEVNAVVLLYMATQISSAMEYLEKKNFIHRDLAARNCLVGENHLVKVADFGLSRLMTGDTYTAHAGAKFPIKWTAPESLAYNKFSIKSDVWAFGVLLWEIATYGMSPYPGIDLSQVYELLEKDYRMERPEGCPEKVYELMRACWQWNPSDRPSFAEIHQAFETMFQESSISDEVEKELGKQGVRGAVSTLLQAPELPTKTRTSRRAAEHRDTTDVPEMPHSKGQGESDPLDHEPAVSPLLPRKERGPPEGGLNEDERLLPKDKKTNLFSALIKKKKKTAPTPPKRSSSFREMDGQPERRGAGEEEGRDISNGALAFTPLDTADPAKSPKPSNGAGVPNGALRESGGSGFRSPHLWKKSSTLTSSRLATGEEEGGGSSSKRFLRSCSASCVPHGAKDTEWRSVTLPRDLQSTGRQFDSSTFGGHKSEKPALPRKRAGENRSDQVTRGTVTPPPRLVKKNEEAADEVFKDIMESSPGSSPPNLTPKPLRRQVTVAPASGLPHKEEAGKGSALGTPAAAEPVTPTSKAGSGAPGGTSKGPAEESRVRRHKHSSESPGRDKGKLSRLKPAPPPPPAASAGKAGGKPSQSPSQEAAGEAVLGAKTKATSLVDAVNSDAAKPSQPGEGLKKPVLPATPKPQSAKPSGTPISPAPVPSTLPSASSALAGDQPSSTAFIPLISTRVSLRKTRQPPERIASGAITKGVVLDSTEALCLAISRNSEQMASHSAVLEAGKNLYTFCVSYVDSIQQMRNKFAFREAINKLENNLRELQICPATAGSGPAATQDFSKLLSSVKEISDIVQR
UniProt O75676, whole entry: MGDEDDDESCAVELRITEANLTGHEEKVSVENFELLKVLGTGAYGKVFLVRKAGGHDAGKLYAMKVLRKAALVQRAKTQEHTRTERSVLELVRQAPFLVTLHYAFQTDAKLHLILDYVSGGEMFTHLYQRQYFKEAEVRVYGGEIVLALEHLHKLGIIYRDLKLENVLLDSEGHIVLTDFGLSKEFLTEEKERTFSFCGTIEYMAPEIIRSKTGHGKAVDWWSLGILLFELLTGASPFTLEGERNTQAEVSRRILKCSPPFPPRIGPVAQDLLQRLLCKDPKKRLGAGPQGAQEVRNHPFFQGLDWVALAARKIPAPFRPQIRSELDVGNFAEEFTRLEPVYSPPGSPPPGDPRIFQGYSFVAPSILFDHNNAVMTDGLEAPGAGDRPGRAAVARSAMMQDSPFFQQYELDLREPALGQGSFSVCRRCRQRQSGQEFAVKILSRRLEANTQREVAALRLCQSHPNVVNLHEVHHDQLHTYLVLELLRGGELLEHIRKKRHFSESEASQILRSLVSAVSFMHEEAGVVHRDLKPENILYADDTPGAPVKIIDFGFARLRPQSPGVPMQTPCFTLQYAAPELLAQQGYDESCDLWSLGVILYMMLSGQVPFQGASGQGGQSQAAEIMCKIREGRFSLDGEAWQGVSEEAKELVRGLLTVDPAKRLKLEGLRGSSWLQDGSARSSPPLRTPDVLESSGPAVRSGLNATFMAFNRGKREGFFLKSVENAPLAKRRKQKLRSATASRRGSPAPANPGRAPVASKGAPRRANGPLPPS
UniProt P68400, whole entry: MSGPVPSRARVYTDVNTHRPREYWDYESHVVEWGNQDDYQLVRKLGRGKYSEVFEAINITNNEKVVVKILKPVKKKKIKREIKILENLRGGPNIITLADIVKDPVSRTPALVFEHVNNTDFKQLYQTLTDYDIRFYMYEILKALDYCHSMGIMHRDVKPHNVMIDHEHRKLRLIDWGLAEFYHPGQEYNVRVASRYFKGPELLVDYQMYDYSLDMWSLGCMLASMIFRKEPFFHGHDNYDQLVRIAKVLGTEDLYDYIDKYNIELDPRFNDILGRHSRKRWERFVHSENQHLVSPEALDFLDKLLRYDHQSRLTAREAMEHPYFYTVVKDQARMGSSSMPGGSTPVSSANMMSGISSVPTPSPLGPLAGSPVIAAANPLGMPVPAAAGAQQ
UniProt P80192, whole entry: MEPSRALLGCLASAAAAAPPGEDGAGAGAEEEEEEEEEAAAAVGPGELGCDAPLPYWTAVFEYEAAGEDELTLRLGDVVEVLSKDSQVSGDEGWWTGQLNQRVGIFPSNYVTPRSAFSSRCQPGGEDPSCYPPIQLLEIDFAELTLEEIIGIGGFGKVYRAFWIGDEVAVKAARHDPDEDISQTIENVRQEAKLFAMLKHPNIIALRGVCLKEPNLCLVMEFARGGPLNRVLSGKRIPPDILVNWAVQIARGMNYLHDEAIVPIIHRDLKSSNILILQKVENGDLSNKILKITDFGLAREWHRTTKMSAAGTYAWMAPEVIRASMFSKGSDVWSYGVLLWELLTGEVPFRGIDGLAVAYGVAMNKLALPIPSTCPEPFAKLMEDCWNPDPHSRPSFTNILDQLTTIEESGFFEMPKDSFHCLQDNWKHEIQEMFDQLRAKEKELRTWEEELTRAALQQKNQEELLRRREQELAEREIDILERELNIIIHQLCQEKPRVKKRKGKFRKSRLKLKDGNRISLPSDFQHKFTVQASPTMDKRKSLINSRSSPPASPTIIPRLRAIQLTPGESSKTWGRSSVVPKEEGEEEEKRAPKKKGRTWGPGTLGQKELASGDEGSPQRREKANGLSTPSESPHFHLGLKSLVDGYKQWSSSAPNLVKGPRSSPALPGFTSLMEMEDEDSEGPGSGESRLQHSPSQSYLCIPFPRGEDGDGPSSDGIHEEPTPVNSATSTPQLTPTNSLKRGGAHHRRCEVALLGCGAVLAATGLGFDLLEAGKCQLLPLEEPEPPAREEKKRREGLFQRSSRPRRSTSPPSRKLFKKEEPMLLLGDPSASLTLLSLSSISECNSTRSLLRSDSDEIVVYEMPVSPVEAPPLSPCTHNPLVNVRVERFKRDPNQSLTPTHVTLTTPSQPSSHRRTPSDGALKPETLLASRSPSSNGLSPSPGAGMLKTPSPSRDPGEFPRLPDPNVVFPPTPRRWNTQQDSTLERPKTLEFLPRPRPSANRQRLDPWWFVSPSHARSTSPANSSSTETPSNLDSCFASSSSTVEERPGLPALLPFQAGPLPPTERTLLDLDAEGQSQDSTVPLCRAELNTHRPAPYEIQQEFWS
UniProt P49674, whole entry: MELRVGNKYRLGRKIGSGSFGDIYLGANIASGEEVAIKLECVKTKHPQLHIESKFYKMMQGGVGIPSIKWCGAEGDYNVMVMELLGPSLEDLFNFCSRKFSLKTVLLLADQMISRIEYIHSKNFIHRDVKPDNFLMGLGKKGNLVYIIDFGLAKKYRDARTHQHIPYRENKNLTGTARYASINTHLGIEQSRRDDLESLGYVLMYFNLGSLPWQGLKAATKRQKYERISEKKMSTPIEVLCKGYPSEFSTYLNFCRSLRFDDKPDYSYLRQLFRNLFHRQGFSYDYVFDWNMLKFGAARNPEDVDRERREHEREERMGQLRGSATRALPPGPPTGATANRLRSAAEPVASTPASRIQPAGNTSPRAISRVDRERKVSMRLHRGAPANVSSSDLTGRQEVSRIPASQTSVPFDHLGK

Experiments:
Test in all cases: Kinase profiling, Z-Lyte
[1] = biological target: MAP3K19 (YSK4) (Homo sapiens, UniProt Q56UN5); conditions: 1 μM, KmATP
[2] = biological target: STK3 (MST2) (Homo sapiens, UniProt Q13188); conditions: 1 μM, KmATP
[3] = biological target: CDK5/p25 (Homo sapiens, UniProt Q00535); conditions: 1 μM, KmATP
[4] = biological target: MSTIR (RON) (Homo sapiens, UniProt Q04912); conditions: 1 μM, KmATP
[5] = biological target: ROS1 (Homo sapiens, UniProt P08922); conditions: 1 μM, KmATP
[6] = biological target: PRKACA (PKA) (Homo sapiens, UniProt P17612); conditions: 1 μM, KmATP
[7] = biological target: NTRK3 (TRKC) (Homo sapiens, UniProt Q16288); conditions: 1 μM, KmATP
[8] = biological target: MARK2 (Homo sapiens, UniProt Q7KZI7); conditions: 1 μM, KmATP
[9] = biological target: EEF2K (Homo sapiens, UniProt O00418); conditions: 1 μM, KmATP
[10] = biological target: MAPK12 (p38 gamma) (Homo sapiens, UniProt P53778); conditions: 1 μM, KmATP
[11] = biological target: CSNK1D (CK1 delta) (Homo sapiens, UniProt P48730); conditions: 1 μM, KmATP
[12] = biological target: STK22D (TSSK1) (Homo sapiens, UniProt Q9BXA7); conditions: 1 μM, KmATP
[13] = biological target: MAPK11 (p38 beta) (Homo sapiens, UniProt Q15759); conditions: 1 μM, KmATP
[14] = biological target: PRKD2 (PKD2) (Homo sapiens, UniProt Q9BZL6); conditions: 1 μM, KmATP
[15] = biological target: RET Hu Phos (Homo sapiens, UniProt P07949); conditions: 1 μM, KmATP
[16] = biological target: MAP4K2 (GCK) (Homo sapiens, UniProt Q12851); conditions: 1 μM, KmATP
[17] = biological target: LTK (TYK1) (Homo sapiens, UniProt P29376); conditions: 1 μM, KmATP
[18] = biological target: AXL (Homo sapiens, UniProt P30530); conditions: 1 μM, KmATP
[19] = biological target: MELK (Homo sapiens, UniProt Q14680); conditions: 1 μM, KmATP
[20] = biological target: HIPK2 (Homo sapiens, UniProt Q9H2X6); conditions: 1 μM, KmATP
[21] = biological target: CDK1/cyclin B (Homo sapiens, UniProt P06493); conditions: 1 μM, KmATP
[22] = biological target: ABL1 Hu Phos (Homo sapiens, UniProt P00519)
[23] = biological target: EPHB3 (Homo sapiens, UniProt P54753); conditions: 1 μM, KmATP
[24] = biological target: EPHA1 (Homo sapiens, UniProt P21709)
[25] = biological target: MAP4K4 (HGK) (Homo sapiens, UniProt O95819); conditions: 1 μM, KmATP
[26] = biological target: SRPK2 (Homo sapiens, UniProt P78362); conditions: 1 μM, KmATP
[27] = biological target: RPS6KA4 (MSK2) (Homo sapiens, UniProt O75676); conditions: 1 μM, KmATP
[28] = biological target: CSNK2A1 (CK2alpha1) (Homo sapiens, UniProt P68400); conditions: 1 μM, KmATP
[29] = biological target: STK4 (MST1) (Homo sapiens, UniProt Q13043); conditions: 1 μM, KmATP
[30] = biological target: CSNK1G2 (CK1gamma2) (Homo sapiens, UniProt P78368); conditions: 1 μM, KmATP
[31] = biological target: HIPK1 (Myak) (Homo sapiens, UniProt Q86Z02); conditions: 1 μM, KmATP
[32] = biological target: MAP3K9 (MLK1) (Homo sapiens, UniProt P80192); conditions: 1 μM, KmATP
[33] = biological target: CSNK1E (CK1 epsilon) (Homo sapiens, UniProt P49674); conditions: 1 μM, KmATP
[34] = biological target: EPHB2 (Homo sapiens, UniProt P29323)
[35] = biological target: CDK5/p35 (Homo sapiens, UniProt Q00535); conditions: 1 μM, KmATP
[36] = biological target: AMPK A1/B2/G3 (Homo sapiens, UniProt Q13131); conditions: 1 μM, KmATP
[37] = biological target: SGK (SGK1) (Homo sapiens, UniProt O00141); conditions: 1 μM, KmATP
[38] = biological target: LYN B (Homo sapiens, UniProt P07948)
[39] = biological target: PRKD1 (PKC mu) (Homo sapiens, UniProt Q15139); conditions: 1 μM, KmATP

## Cc1nc(C(F)(F)F)c2c(C(N)=O)c(N)n(-c3c(C)ccc(O)c3C)c2n1 (single isomer, unassigned)
[1]
  MEAN INHIBITION: 1.798%
[2]
  MEAN INHIBITION: 1.674%
[3]
  MEAN INHIBITION: 3.607%
[4]
  MEAN INHIBITION: 1.678%
[5]
  MEAN INHIBITION: 7.695%
[6]
  MEAN INHIBITION: 1.830%
[7]
  MEAN INHIBITION: 6.225%
[8]
  MEAN INHIBITION: 4.784%
[9]
  MEAN INHIBITION: 7.251%
[10]
  MEAN INHIBITION: 9.311%
[11]
  MEAN INHIBITION: 1.788%
[12]
  MEAN INHIBITION: 8.038%
[13]
  MEAN INHIBITION: 5.090%
[14]
  MEAN INHIBITION: 7.103%
[15]
  MEAN INHIBITION: 13.595%
[16]
  MEAN INHIBITION: −5.172%
[17]
  MEAN INHIBITION: 3.950%
[18]
  MEAN INHIBITION: 4.909%
[19]
  MEAN INHIBITION: 11.594%
[20]
  MEAN INHIBITION: 1.451%
[21]
  MEAN INHIBITION: 4.337%
[22]; 1 μM, KmATP
  MEAN INHIBITION: 62.791%
[22]; 10-point CR, ATP 10.000 μM
  IC50: 278 nM
[23]
  MEAN INHIBITION: 71.690%
[24]; 1 μM, KmATP
  MEAN INHIBITION: 96.280%
[24]; 10-point CR, ATP 25.000 μM
  IC50: 37 nM
[25]
  MEAN INHIBITION: 15.192%
[26]
  MEAN INHIBITION: 3.415%
[27]
  MEAN INHIBITION: 6.622%
[28]
  MEAN INHIBITION: 1.840%
[29]
  MEAN INHIBITION: 4.636%
[30]
  MEAN INHIBITION: 1.270%
[31]
  MEAN INHIBITION: 1.992%
[32]
  MEAN INHIBITION: −6.777%
[33]
  MEAN INHIBITION: 0.607%
[34]; 1 μM, KmATP
  MEAN INHIBITION: 68.536%
[34]; 10-point CR, ATP 75.000 μM
  IC50: 374 nM
[35]
  MEAN INHIBITION: 6.213%
[36]
  MEAN INHIBITION: 6.628%
[37]
  MEAN INHIBITION: 1.583%
[38]; 1 μM, KmATP
  MEAN INHIBITION: 52.127%
[38]; 10-point CR, ATP 25.000 μM
  IC50: 387 nM
[39]
  MEAN INHIBITION: 3.764%
